Assay: Binding to phosphatidylcholine-coated silica beads (TRANSIL Intestinal Absorption Kit)
Settings: compared with the physiologically active substance alone taken as 1
Procedure: In the evaluation herein, the binding of substances to silica beads coated with a phospholipid (phosphatidylcholine) was compared. A higher binding indicates a higher cell membrane transport and a higher intestinal absorption.
An aqueous phase was prepared and the pH was adjusted with a pH adjuster to a pH value of 6. The aqueous phase and an oil phase were heated to 50 to 60° C. The aqueous phase was added to the oil phase. The mixture was stirred with a homogenizer (HG-200, As One Corporation) at a high speed of 10,000 rpm for 10 minutes to give an emulsion.
The affinity with phosphatidylcholine-coated silica beads (TRANSIL Intestinal Absorption Kit, SOVICELL GMBH) was assessed. […] The fluorescence intensity of the supernatant was measured with a spectrophotometer (Hitachi F-2700, excitation wavelength: 494 nm, fluorescence wavelength: 521 nm).
A volume of 200 μl of PBS containing the beads was added to each tube, and 20 μl of each of the compositions was added. […] The absorbance of the oil red solution in methanol was measured at 510 nm with an ultraviolet spectrophotometer (Shimadzu UV-1200). The relative amount of the pigment of Example 14 or Comparative Example 4 bound to the beads was calculated, with the obtained value of an oil red solution (Comparative Example 5) taken as 1. […]
The calculated value was expressed by the symbols A, B and C. […]

## Catechin
Substance emulsified with sophorolipid
  Relative amount of physiologically active substance bound to the beads, Example (sophorolipid): B (affinity of not less than 2.0-fold and less than 5.0-fold)
Substance emulsified with sucrose fatty acid ester
  Relative amount of physiologically active substance bound to the beads, Comparative Example (sucrose fatty acid ester): C (affinity of less than 2.0-fold)
